Data published in patent publication US20020049193A1, “N-linked sulfonamides of heterocyclic thioesters” (GPI NIL HOLDINGS, INC., priority 1996, published 2002).

The chains behind the UniProt entries cited, without tags or fusion partners.
UniProt P62942, whole entry: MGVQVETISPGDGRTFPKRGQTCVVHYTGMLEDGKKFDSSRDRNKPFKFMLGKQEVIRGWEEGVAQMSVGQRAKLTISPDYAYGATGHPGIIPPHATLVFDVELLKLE

Legend:
FKBP12 = FKBP12 (Homo sapiens, UniProt P62942); assay: Ki test procedure: inhibition of peptidyl-prolyl isomerase (rotamase) activity, chymotrypsin-coupled assay; assay type: biochemical; conditions: read-out: Kl, apparent Ki, ranked potency
[1] = tested on: chick dorsal root ganglia; assay: Chick dorsal root ganglion cultures and neurite outgrowth; assay type: cell-based; conditions: read-out: ED50; neurite outgrowth in chick DRG explants, 48 hours after drug treatment, ranked potency

## Cc1ccc(S(=O)(=O)N2CCCC2C(=O)SCCC(c2ccccc2)c2ccccc2)cc1 (centres unmarked)
FKBP12
  Ki: 1 to 50 nM
[1]
  EC50: < 1 nM
